Sequences of proteins named here, by UniProt entry; tags and fusion partners are left off. A line that says so, or that is headed by a name, gives the form on record, which may keep a tag or linker.
UniProt P01887, other isoform, or with tags, fused parts or gaps, stated change not applied: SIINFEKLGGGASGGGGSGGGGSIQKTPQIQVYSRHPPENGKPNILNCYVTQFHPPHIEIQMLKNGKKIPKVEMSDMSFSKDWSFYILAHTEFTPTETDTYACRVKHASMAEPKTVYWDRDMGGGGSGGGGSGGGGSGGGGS

In US20090117153A1:

Biological target: OVA.β2m.Kb SCT Y84A (mouse) (UniProt P01887)
Experiment: cell-based or functional assay

VSV8 peptide
VSV8 concentration that activates the N15 hybridoma to the same level; 3KO cells: 1000 nM
